Laboratory results taken from the Kinase Knowledgebase extract (Sharma et al. 2016).

Amino acid sequences for entries named in this document (tags omitted).
UniProt P42336, whole entry, looked up: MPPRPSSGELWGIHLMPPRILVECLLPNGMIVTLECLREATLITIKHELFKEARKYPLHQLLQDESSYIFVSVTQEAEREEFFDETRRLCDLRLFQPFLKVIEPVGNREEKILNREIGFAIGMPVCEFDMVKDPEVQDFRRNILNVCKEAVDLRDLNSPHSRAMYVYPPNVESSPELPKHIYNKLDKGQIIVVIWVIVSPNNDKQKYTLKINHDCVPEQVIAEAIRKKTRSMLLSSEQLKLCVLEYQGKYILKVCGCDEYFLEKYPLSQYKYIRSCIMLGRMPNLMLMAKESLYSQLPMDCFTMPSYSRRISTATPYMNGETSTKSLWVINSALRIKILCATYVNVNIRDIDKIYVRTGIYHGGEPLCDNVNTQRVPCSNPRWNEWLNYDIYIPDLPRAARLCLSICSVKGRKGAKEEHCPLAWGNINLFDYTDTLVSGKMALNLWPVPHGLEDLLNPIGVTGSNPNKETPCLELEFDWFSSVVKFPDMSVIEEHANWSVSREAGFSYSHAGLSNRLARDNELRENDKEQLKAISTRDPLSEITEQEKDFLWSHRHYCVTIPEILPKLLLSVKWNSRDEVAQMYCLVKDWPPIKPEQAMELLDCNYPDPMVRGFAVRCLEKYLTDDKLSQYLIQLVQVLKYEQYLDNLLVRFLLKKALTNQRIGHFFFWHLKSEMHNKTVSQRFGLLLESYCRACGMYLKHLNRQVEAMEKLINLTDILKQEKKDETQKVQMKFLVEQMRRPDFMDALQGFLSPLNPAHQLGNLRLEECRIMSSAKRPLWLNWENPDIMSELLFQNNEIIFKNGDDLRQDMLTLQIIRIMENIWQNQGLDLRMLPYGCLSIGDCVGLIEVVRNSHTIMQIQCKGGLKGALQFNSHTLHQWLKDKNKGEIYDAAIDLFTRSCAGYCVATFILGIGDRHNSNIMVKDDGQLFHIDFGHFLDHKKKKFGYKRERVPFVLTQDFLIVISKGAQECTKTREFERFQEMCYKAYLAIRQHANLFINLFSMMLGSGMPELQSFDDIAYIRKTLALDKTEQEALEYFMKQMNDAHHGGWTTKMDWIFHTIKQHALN

Molecular target: PIK3CA (human) (UniProt P42336)
Experiment: Cell-Based Assay
Details: bt474

`Cn1c(=O)n([C@H]2CCOC2)c2c3cc(-c4ccc(OCCCN5CCCCC5)nc4)ccc3ncc21` showed an IC50 greater than 9.13 µM.
